Patent EP0542525B1, “Antithrombotic agents” (ELI LILLY AND COMPANY, priority 1991, dated 1993)

Biological target: thrombin (Bos taurus, UniProt P00735)
Assay: biochemical

Compound	Kd [nM]
CC(C)(C)OC(=O)N[C@H](Cc1ccccc1)C(=O)N1CC[C@H]1C(=O)N[C@H](C=O)CCCNC(=N)N [Boc-D-Phe-L-Azt-L-Arg-H, N-(N-t-Butyloxycarbonyl)-D-phenylalanyl-L-azetidinyl-4-arginine aldehyde diacetate]	15.4
CC(C)(C)OC(=O)N[C@@H](C(=O)N1CC[C@H]1C(=O)N[C@H](C=O)CCCN=C(N)N)c1ccccc1 [Boc-D-Phg-L-Azt-L-Arg-H, N-(N-t-Butyloxycarbonyl-D-phenylglycyl)-L-azetidinyl-L-arginine aldehyde diacetate]	6.71
